Experimental findings from patent US6444668B1 (Wyeth, priority 1999, dated 2002) are described below.

Sequences of proteins named here, by UniProt entry; tags and fusion partners are left off.
UniProt P06401, whole entry: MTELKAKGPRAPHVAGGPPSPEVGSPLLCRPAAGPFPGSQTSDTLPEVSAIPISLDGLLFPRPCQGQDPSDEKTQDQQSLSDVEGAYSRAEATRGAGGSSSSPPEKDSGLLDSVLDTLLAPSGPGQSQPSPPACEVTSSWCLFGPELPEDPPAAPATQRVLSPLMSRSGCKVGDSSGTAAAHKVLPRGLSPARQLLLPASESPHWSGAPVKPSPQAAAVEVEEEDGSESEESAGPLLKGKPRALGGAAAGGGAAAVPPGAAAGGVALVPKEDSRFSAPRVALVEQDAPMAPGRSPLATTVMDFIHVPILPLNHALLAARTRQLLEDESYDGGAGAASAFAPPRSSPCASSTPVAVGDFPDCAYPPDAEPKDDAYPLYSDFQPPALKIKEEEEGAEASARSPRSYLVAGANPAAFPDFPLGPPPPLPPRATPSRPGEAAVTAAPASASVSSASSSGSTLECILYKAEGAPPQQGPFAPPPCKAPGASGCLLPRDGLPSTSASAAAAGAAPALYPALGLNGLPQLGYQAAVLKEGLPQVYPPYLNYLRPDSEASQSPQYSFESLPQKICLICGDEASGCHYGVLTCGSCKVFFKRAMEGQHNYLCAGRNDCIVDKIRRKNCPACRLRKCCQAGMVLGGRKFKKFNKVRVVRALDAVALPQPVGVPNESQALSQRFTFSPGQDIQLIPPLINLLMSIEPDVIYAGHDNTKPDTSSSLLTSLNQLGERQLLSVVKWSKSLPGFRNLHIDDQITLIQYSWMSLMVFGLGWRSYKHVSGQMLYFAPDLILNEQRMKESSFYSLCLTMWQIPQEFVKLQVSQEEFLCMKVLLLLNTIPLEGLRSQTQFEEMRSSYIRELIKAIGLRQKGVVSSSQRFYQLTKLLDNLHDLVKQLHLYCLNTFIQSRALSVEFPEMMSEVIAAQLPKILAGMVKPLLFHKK

By IC50 is commonly meant the concentration that inhibits the measured activity by half.

The subject of test [1] is rat uterine decidualization. In words: Rat decidualization assay. The note with it: half-maximal decrease in EC50 progesterone induced decidual response.
The target of a further test is human PR (Homo sapiens, UniProt P06401). In words: PRE-luciferase assay in CV-1 cells. Format: cell-based. The note with it: read-out: hPR CV-1 IC50; PR antagonist; CV-1 cells co-transfected with human PR and PRE-luciferase; in the presence of 3 nM progesterone.

For the compound `CC1(C)OC(=O)Nc2ccc(-c3ccc(F)c(C#N)c3)cc21` [Compound 1, 5-(4,4Dimethyl-2-oxo-1,4-dihydro-2H-benzo[d][1,3]oxazin-6-yl)-2-fluoro-benzonitrile], the “Decidualization IC50” value in test [1] was determined as 6.96 ± 0.84 mg/kg. Also, at human PR, the IC50 came out at 0.013 µM.
